The subject of this experiment is Mus musculus. The experiment in a line: Antinociceptive activity was determined using the mouse acetylcholine-induced abdominal constriction test followed by subcutaneous administration. The conditions noted are these: Abdomen.

Usually ED50 stands for the dose that gives a 50% effect, or the effect in half of the subjects. Low values mean greater potency, high ones weaker potency.

In the case of `CN(C(=O)Cc1ccc(Cl)c(Cl)c1)C1CCCCC1N1CCCC1` (stereo unspecified), it took a dose of 0.41 mg/kg to reach the 50% effect level (ED50).
